Assay results as given in ChEMBL document CHEMBL5385844, “Discovery of novel imidazole chemotypes as isoform-selective JNK3 inhibitors for the treatment of Alzheimer's disease” (Eur J Med Chem, 2023).

Sequences of proteins named here, by UniProt entry; tags and fusion partners are left off. A change or cut given only in a name is not applied to a line headed by its entry.
UniProt P53779: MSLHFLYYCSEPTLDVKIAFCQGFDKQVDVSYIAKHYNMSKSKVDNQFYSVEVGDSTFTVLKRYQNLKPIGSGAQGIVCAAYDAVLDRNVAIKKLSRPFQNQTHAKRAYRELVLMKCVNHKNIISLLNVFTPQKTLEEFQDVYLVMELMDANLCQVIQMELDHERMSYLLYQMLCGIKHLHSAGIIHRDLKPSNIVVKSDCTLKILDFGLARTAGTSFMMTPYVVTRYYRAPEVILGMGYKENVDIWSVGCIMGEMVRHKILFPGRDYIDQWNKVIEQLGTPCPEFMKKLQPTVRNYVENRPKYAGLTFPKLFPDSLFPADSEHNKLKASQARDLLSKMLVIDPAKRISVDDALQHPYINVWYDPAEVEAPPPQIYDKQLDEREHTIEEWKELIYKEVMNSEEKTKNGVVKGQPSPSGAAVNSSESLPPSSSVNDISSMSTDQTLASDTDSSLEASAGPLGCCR
UniProt P45984: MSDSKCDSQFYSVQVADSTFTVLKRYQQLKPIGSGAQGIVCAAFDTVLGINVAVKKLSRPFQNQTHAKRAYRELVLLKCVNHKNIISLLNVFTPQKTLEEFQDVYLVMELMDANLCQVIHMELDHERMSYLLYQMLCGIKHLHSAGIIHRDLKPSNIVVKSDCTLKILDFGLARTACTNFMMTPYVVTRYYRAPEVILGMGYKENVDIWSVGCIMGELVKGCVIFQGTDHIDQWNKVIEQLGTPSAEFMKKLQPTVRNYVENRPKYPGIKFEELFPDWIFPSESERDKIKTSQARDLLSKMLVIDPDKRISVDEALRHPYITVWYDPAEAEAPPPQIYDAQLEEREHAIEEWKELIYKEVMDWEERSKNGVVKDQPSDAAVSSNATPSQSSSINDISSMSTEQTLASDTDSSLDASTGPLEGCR

Experiments:
[1] = target: Mitogen-activated protein kinase 10 (Homo sapiens, UniProt P53779); experiment: Inhibition of human JNK3 incubated for 40 mins in presence of ATP and [gamma33P-ATP] by scintillation counting method
[2] = target: Mitogen-activated protein kinase 9 (Homo sapiens, UniProt P45984); experiment: Inhibition of JNK2 (unknown origin) assessed as incorporation of 33P-ATP

IC50 [1]: 3 nM
IC50 [2]: 230 nM
SMILES: NC(=O)N1Cc2nc(-c3ccc(Cl)c(Cl)c3)n(-c3ccnc(N[C@@H]4CCN(C(=O)C5CC5)C4)n3)c2C1
